Laboratory results from ChEMBL document CHEMBL3804825, “Synthesis, structure-activity relationships, and biological evaluation of a series of benzamides as potential multireceptor antipsychotics” (Bioorg Med Chem Lett, 2016).

The chains behind the UniProt entries cited, without tags or fusion partners.
UniProt P14416, whole entry: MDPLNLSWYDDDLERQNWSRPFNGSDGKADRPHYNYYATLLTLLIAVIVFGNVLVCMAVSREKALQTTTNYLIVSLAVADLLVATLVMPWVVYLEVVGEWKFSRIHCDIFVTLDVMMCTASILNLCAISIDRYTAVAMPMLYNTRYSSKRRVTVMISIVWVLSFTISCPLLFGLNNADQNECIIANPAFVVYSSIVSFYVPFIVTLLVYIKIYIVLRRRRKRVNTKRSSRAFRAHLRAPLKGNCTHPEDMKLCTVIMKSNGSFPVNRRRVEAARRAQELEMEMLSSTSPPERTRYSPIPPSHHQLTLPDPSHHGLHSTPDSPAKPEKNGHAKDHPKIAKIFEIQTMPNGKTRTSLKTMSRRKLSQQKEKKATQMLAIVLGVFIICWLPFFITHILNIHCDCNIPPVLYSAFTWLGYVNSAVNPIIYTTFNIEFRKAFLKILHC

Target: D(2) dopamine receptor (Homo sapiens, UniProt P14416)
Assay: Antagonistic activity at human dopamine D2 receptor measured after 60 mins by Ultra Lance cAMP assay
Assay type: functional

- IC50: 0.055 µM
Compound: NC(=O)c1cccc(OCCCCN2CCN(c3cccc(Cl)c3Cl)CC2)c1
